Results as given in patent US9233109B2, “Compositions, methods of use, and methods of treatment” (UNIVERSITY OF FLORIDA RESEARCH FOUNDATION, INC., priority 2010, dated 2016).

Sequences of proteins named here, by UniProt entry; tags and fusion partners are left off. Residues count along the entry.
UniProt P17787, 26-502: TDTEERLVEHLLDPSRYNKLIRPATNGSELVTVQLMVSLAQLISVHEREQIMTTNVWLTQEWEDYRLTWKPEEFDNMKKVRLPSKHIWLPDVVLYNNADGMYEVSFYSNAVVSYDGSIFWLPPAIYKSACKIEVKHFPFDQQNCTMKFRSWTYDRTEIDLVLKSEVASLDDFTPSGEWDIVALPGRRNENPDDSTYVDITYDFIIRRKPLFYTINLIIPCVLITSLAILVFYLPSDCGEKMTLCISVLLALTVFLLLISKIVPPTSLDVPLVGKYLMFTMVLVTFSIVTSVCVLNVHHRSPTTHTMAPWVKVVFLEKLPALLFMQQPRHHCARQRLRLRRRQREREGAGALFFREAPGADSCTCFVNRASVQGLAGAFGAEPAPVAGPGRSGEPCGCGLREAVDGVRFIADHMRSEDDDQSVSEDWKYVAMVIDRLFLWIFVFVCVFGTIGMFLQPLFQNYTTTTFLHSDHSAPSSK
UniProt P43681, 29-627 limits assumed: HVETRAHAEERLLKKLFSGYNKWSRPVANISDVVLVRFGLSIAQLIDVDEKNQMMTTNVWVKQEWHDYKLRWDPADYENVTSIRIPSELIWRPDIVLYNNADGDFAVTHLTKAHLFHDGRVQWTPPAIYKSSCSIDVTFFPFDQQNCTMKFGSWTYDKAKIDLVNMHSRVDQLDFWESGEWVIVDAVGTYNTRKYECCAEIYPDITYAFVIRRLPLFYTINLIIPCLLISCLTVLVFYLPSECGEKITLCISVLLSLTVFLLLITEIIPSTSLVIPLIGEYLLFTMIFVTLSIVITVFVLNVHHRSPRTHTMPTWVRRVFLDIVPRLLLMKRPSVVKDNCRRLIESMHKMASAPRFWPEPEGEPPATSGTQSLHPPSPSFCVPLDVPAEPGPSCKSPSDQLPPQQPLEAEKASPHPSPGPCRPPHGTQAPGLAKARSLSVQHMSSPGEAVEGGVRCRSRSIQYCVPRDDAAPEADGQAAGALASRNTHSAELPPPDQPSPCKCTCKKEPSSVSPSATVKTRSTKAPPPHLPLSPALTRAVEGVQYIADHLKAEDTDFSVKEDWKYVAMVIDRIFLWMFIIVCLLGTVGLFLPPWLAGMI
UniProt P36544, 23-502: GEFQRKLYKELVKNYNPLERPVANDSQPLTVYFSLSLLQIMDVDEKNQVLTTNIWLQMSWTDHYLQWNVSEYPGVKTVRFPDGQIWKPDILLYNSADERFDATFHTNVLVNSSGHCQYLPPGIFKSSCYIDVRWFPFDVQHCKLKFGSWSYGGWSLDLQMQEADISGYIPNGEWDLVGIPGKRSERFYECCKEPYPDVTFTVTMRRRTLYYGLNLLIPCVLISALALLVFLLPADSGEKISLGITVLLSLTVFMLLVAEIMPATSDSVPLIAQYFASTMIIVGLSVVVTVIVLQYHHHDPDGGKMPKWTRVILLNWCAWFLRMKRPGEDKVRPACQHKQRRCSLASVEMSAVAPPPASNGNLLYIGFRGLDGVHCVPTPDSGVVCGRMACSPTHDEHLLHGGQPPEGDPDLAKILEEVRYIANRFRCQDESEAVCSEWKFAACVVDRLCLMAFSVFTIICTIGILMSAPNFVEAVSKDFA

Assays:
Assay type in all cases: cell-based
[1] = molecular target: T1, HS α4β2 (α4(2)β2(3)) nAChR (Homo sapiens, UniProt P17787+P43681); assay: Bath application of test compound: inhibition of ACh-evoked peak currents in Xenopus oocytes
T1 construct: expressed in transfected cells; host or cells: Xenopus laevis oocytes injected with cRNA
Protocol: (§1) We have extended this approach to defined receptor subtypes expressed in Xenopus oocytes. Experiments were conducted on cells expressing HS α4β2 (α4(2)β2(3)), LS α4β2 (α4(3)β2(2)), or α7 nAChR.
(§2) cDNA: Human nAChR receptor clones and concatamers were obtained from Dr. Jon Lindstrom (University of Pennsylvania, Philadelphia Pa.). The human RIC-3 clone, obtained from Dr. Millet Treinin (Hebrew University, Jerusalem Israel), was co-injected with α7 to improve the levels and speed of receptor expression.
(§3) Oocyte preparation: Oocytes were surgically removed from mature Xenopus laevis frogs and injected with 50 nl (5-20 ng) of appropriate nAChR subunit cRNAs as described previously (Horenstein et al., 2008).
(§4) Experiments were conducted using OpusXpress 6000A (Molecular Devices, Union City Calif.) and analyzed as described previously (Papke and Papke, 2002; Horenstein et al., 2008; Papke and Stokes, 2010).
(§5) Initial experiments were run for 50 minutes after the introduction of the experimental compounds into the bath.

[2] = molecular target: T2, LS α4β2 (α4(3)β2(2)) nAChR (Homo sapiens, UniProt P17787+P43681); assay: as above
T2 construct: expressed in transfected cells; host or cells: Xenopus laevis oocytes injected with cRNA
Protocol: as §1, §2, §3, §4, §5

[3] = molecular target: T3, α7 nAChR (Homo sapiens, UniProt P36544); assay: Bath application of test compound: modulation of ACh-evoked net charge responses in Xenopus oocytes; settings: read-out: IC50, inhibition of ACh-evoked responses by prolonged bath application
T3 construct: expressed in transfected cells; host or cells: Xenopus laevis oocytes injected with cRNA
Protocol: as §1, §2, §3, §4, §5

Structure (SMILES) | IC50 [1] [µM] | IC50 [2] [µM] | IC50 [3] [µM]
C[N+](C)(C)CCO [choline] | 100 ± 80 | > 1000 | –
c1cnc2cc3c(cc2n1)C1CNCC3C1 [Varenicline, 7,8,9,10-tetrahydro-6,10-methano-6H-pyrazino (2,3-h)(3) benzazepine] | – | – | 0.334 ± 0.132
